Test results taken from ChEMBL document CHEMBL4028873, “The Discovery of a Dual TTK Protein Kinase/CDC2-Like Kinase (CLK2) Inhibitor for the Treatment of Triple Negative Breast Cancer Initiated from a Phenotypic Screen” (J Med Chem, 2017).

Assays:
[1] = Metabolic stability in rat liver S9 fraction assessed as percent of compound remaining after 60 mins; type: ADME, tissue-based; details: read-out: Stability
[2] = Metabolic stability in human liver S9 fraction assessed as percent of compound remaining after 60 mins; type: ADME, tissue-based; details: read-out: Stability
[3] = Clearance in rat at 2 mg/kg, iv; type: ADME, organism-based; details: in vivo
[4] = Volume of distribution at steady state in rat at 2 mg/kg, iv; type: ADME, organism-based; details: in vivo, read-out: Vdss
[5] = Mean residence time in rat at 2 mg/kg, iv; type: ADME, organism-based; details: in vivo
[6] = Clearance in SCID mouse at 10 mg/kg, iv; type: ADME, organism-based; details: in vivo
[7] = Mean residence time in SCID mouse at 10 mg/kg, iv; type: ADME, organism-based; details: in vivo

remaining at 1 h [1] | remaining at 1 h [2] | clearance [3] | Vd [4] | MRT [5] | clearance [6] | MRT [7] | Structure (SMILES)
87% | 79% | 61.3 mL/min/kg | 4 L/kg | 1.1 h | 63.1 mL/min/kg | 0.36 h | CNC(=O)c1ccc(-c2c[nH]c3nc(Nc4ccc(C(=O)NC)cc4OC)nc(OC4CCCC4)c23)cc1
63% | 75% | 11.4 mL/min/kg | 1.5 L/kg | 2.5 h | 10.4 mL/min/kg | 3.1 h | CNC(=O)c1ccc(Nc2nc(OC3CC3)c3c(-c4ccc5nc(C)oc5c4)c[nH]c3n2)c(OC)c1
80% | 90% | 50.8 mL/min/kg | 3.9 L/kg | 1.3 h | 31.6 mL/min/kg | 0.59 h | COc1cc(C(=O)NCCO)ccc1Nc1nc(OC2CCCC2)c2c(-c3ccc4nc(C)oc4c3)c[nH]c2n1
